Patent publication US20210255205A1, “COMPOSITIONS AND METHODS FOR TREATING METABOLIC DISEASE” (THE REGENTS OF THE UNIVERSITY OF CALIFORNIA, priority 2018, published 2021)

Test system: ASTER domains from Aster-A, -B, and -C
Assay: fluorescent NBD-cholesterol binding assay
Design: species or system mouse
Conditions: fluorescence binding assay

In the case of 6-NBD-cholesterol, the “binding to the ASTER domains” value is reported as “did not bind”.
